# scFv variants of Ab-14 (light chain) against a SARS-CoV-2 spike peptide

Target peptide (SARS-CoV-2 spike, HR2 region): PDVDLGDISGINAS

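Phage display of a naive human antibody library on the peptide gave the parent. This is the validation round: designs drawn from the data on random variants, tested in the same kind of assay. Their group label is 14L_GP_Gibbs (GP: Gaussian process model; Gibbs: Gibbs sampling; a sequence that several methods proposed may carry one label only). In AlphaSeq, yeast of one mating type display the scFv and yeast of the other type display the target. Pairs that bind mate more often; barcode pairs of the diploids are counted by sequencing. Each replicate has its own calibration line, from reference interactions of the BCL2 family. Each pool was mated in six replicate cultures.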

Parent scFv Ab-14: VH joined to VL by the linker GGGGSGGGGSGGGGS. Changes lie in the light chain CDRs alone.
VH: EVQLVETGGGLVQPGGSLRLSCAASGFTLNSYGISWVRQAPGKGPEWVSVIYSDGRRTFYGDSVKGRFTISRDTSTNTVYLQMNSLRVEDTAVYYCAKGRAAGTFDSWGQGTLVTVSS
VL: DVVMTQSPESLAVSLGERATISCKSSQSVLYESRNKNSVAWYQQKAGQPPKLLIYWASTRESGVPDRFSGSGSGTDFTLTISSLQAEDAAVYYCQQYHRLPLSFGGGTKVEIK

The whole VL of each variant is written out.
Affinities are written as log10 Kd with Kd in nM; a lower number is a better binder.
"ND" marks a missing value. The strain was present, yet no cells mated with the target were sequenced in that replicate, which points to weak or no binding.
The authors averaged sequences with at least three values out of six and counted those with two or fewer as poor binders.

VL,"replicates, log10 nM",control signals
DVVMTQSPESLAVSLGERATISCKQQFSGMYGSRNKNSVAWYQQKAGQPPKLLIYKASTRESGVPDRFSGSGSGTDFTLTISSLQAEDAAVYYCQQYHRLPLSFGGGTKVEIK,1.48 / 1.78 / 1.83 / 1.63 / 2.84 / 2.00,0/18
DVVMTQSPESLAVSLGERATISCYLSQSVEYESRNKNSVAWYQQKAGQPPKLLIYNASTREYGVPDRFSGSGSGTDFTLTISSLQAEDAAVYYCQQYHRLPLAFGGGTKVEIK,ND / ND / ND / 0.76 / ND / ND,0/18
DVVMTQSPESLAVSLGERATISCKLSQSHLYESRNVNNVAWYQQKAGQPPKLLIYEASYRMDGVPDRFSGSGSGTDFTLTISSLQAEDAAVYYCQQYHRLPLSFGGGTKVEIK,0.28 / -0.08 / -0.50 / -0.20 / -0.38 / -0.06,0/18
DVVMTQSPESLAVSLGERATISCKLHQEVGYESRNKNSVAWYQQKAGQPPKLLIYGASQRESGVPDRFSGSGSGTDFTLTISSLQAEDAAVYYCQQYHRLPLSFGGGTKVEIK,1.13 / 0.64 / 0.56 / 0.94 / 0.82 / 0.58,0/18
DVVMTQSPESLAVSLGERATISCKLEGSNLYESRNGNSVAWYQQKAGQPPKLLIYNASTRSSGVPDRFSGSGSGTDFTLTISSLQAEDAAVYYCQQYHRLPLSFGGGTKVEIK,-0.17 / -0.36 / -0.23 / -0.17 / -0.13 / 0.06,1/18 (2.09)
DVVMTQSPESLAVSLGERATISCKVPGSNLYESRNKNSVAWYQQKAGQPPKLLIYHASTRESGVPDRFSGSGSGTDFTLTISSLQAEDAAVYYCQDYHRLPLSFGGGTKVEIK,0.48 / 0.32 / 0.29 / 0.24 / 0.26 / 0.62,0/18
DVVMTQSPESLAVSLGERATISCKCSQDVCYGDRNKNSVAWYQQKAGQPPKLLIYNASTREQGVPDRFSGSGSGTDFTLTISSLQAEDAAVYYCQQYHRLPLSFGGGTKVEIK,-0.15 / -0.17 / -0.25 / -0.32 / -0.34 / -0.05,2/18 (3.39)
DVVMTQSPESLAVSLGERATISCKSSGSVLYEDKNVNSVAWYQQKAGQPPKLLIYHASQRCSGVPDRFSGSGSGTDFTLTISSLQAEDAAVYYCQQYHRLPLSFGGGTKVEIK,0.92 / 0.96 / 0.93 / 0.99 / 1.27 / 0.90,0/18
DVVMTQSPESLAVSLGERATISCALSQSELYESRMWNSVAWYQQKAGQPPKLLIYNASTREDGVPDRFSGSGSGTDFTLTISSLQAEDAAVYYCQQYHRLPLSFGGGTKVEIK,1.35 / 1.03 / 1.47 / 1.74 / 1.21 / 1.51,0/18
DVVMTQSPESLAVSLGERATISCKVFQSMLYEQRNQNSVAWYQQKAGQPPKLLIYSASTRENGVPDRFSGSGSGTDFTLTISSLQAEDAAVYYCQQYHRLPLSFGGGTKVEIK,0.69 / 0.39 / 0.31 / 0.57 / 0.40 / 0.41,0/18
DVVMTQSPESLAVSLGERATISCKVSPSWLYEDRNCNSVAWYQQKAGQPPKLLIYQASCRESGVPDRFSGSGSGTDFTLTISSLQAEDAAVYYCQQYHRLPLSFGGGTKVEIK,0.68 / 0.36 / 0.69 / 0.89 / 0.86 / 0.74,1/18 (2.10)
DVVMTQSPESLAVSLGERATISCKFSQGGPYEQRQKNSVAWYQQKAGQPPKLLIYNASQRESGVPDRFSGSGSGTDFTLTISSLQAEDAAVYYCQQYHRLPLSFGGGTKVEIK,0.08 / -0.03 / -0.04 / -0.35 / -0.06 / -0.07,2/18 (2.86)
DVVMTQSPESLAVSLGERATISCKISQSVGYESRNKNSIAWYQQKAGQPPKLLIYNASQREQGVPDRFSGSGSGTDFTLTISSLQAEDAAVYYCQQYHRLPLSFGGGTKVEIK,0.10 / -0.02 / -0.04 / -0.24 / -0.25 / 0.16,0/18
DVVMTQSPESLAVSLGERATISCKISQSMEYESRNVNSVAWYQQKAGQPPKLLIYYASTRELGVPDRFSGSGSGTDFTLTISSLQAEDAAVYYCQQYHRLPLSFGGGTKVEIK,0.85 / 0.43 / 0.46 / 0.81 / 0.30 / 0.72,0/18
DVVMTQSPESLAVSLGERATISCKVDQSVLGQSRNKNAVAWYQQKAGQPPKLLIYAASTREDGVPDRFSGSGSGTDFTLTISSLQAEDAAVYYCQQYHRLPLSFGGGTKVEIK,0.05 / -0.25 / -0.15 / -0.20 / -0.29 / -0.18,1/18 (2.36)
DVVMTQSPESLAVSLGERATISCKLSYSNLYESRNKNSVAWYQQKAGQPPKLLIYNASTRCQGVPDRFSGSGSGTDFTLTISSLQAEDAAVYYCQQYHRLPLSFGGGTKVEIK,0.35 / 0.08 / -0.16 / 0.08 / 0.06 / 0.28,2/18 (2.36)
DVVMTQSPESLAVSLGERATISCKYSQSMLYESRNFNNVAWYQQKAGQPPKLLIYEASTRESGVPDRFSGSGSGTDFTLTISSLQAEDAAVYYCQQYHRLPLSFGGGTKVEIK,0.92 / 0.52 / 1.01 / 0.90 / 1.04 / 1.03,2/18 (2.99)

Of ten entries with the parent sequence, four were seen in most replicates (averages 0.34 to 2.37), three in one and three in none, so single entries are noisy.
Values of this round are not directly comparable with the first-round values of the same sequences.
Nonspecific signal, from three strains lacking the peptide, appeared in 4% of pairings of all light chain designs, centred on 2.64 (5% of these signals below 1.59); values are not corrected for it. The control count says in how many pairings with the empty strains this scFv gave a signal, with their mean in brackets.

Reference: Li et al. 2023, doi:10.1038/s41467-023-39022-2. File: FLAb, binding data.